{"source": "patent US20250152536A1", "about": "“DELIVERY OF AN ANTIOXIDANT COMPOUND FOR TREATING SEIZURES, VIRAL INFECTIONS, EXPOSURE TO CHEMICAL WARFARE AGENTS, AND OTHER CONDITIONS” (published 2025)", "key": {"[1]": {"assay": "PO NAC pharmacokinetics measured by taking blood samples (Example 3)"}, "[2]": {"assay": "Safety and tolerability of intranasal NAC in healthy humans (Example 1)"}, "GSH levels in the brain": {"system": "GSH levels in the brain", "assay": "GSH levels with time after intranasal NAC in 3 healthy subjects (Example 2)"}, "brain glutathione": {"system": "brain glutathione", "assay": "Intranasal NAC in healthy humans: brain GSH/Cr by MEGA PRESS MR Spectroscopy (Example 1)", "details": "for GSH/Cr, Day 2, 1-hour post-NAC / GSH/Cr, Day 2, 2-hours post-NAC: Study Period 1, 1 ml each nostril, mucosal atomization device; for GSH/Cr, Day 2, 1-hour post-NAC: 1 hour after intranasal 20% solution; for GSH/Cr, Day 2, 2-hours post-NAC: 2 hours after intranasal 20% solution"}}}
{"smiles": "CC(=O)N[C@@H](CS)C(=O)O", "values": [{"measurement": "AUC0-10", "setting": "[1]", "value": 1220, "unit": "ng·h/mL"}, {"measurement": "Cmax", "setting": "[1]", "value": 598, "unit": "ng/mL"}, {"measurement": "Tmax", "setting": "[1]", "value": 40.2, "unit": "min"}, {"measurement": "adverse events", "setting": "[2]; 6 healthy subjects, intranasal", "value": "no adverse events were reported"}, {"measurement": "side-effects", "setting": "[2]; 6 healthy subjects, intranasal", "value": "No significant side-effects"}, {"measurement": "subjects reporting very mild transient nausea", "setting": "[2]; 6 subjects, intranasal", "value": 2}, {"measurement": "subjects voicing complaints about the NAC odor", "setting": "[2]; intranasal", "value": "5 of 6"}, {"measurement": "complaints of NAC fluid into the throat", "setting": "[2]; mucosal atomizer (Study Period 1)", "value": "all three subjects complained"}, {"measurement": "complaints of NAC fluid into the throat", "setting": "[2]; multi-dose pump (Study Period 2)", "value": "not found"}, {"measurement": "GSH levels", "setting": "GSH levels in the brain; 12 hours post-NAC administration", "value": "still significantly elevated"}, {"measurement": "GSH levels", "setting": "GSH levels in the brain; at 24 hours", "value": "return to baseline"}, {"measurement": "GSH/Cr, Day 2, 1-hour post-NAC", "setting": "brain glutathione; person one", "value": 0.059}, {"measurement": "GSH/Cr, Day 2, 2-hours post-NAC", "setting": "brain glutathione; person one", "value": 0.052}, {"measurement": "GSH/Cr, Day 2, 1-hour post-NAC", "setting": "brain glutathione; person three", "value": 0.031}, {"measurement": "GSH/Cr, Day 2, 2-hours post-NAC", "setting": "brain glutathione; person three", "value": 0.048}, {"measurement": "GSH/Cr, Day 2, 1-hour post-NAC", "setting": "brain glutathione; person two", "value": 0.037}, {"measurement": "GSH/Cr, Day 2, 2-hours post-NAC", "setting": "brain glutathione; person two", "value": 0.035}, {"measurement": "time for which increased brain GSH/Cr levels are maintained", "setting": "brain glutathione; Study Period 2", "value": "at least 4 hrs"}, {"measurement": "brain GSH levels above baseline", "setting": "brain glutathione; at 4 hours, FIG. 8", "value": 35, "unit": "%"}, {"measurement": "time of peak in levels", "setting": "brain glutathione; combined across all subjects", "value": "1 to 2", "unit": "h"}, {"measurement": "brain GSH as measured by MR spectroscopy", "setting": "brain glutathione; whole study", "value": "statistically significant increase"}]}
